Values quoted from earlier work as cited in US12044651B2, “Sensor device and methods” (SCENTIAN BIO LIMITED, priority 2016, dated 2024).
Some compounds may have been tested in ways that are not shown here.

Tested on: OBP proteins
Conditions: cited from earlier work

## TNT
  concentration that could be detected: 52 pM
